Assay results: patent publication US20150273077A1, “PYRROLOBENZODIAZEPINE-ANTI-HER2 ANTIBODY CONJUGATES” (priority 2012, published 2015)

Tested on: BT-474 xenograft
Test: In vivo anti-tumour activity of ADCs in BT-474 xenograft model
Conditions: NCr nu/nu mice, single IV dose, ADCs 0.3 and 1 mg/kg, Trastuzumab 1.0 mg/kg, result in words
Description: The antibody was conjugated to A, E, D, or B warhead-linkers and tested in the BT-474 xenograft model. At the same time, to investigate any potential anti-tumor activity observed with Trastuzumab alone, the antibody without PBD was tested in the same assay.
• Set up CR female NCr nu/nu mice with I xl BT474-SPN tumor cells in 0% Matrigel sc in flank. • Cell Injection Volume is 0.1 mL/mouse. • Age at Start Date: 8 to 12 weeks. • Perform a pair match when tumors reach an average size of 100-150 mm^3 and begin treatment. • Body Weight: qd×5 then bi-wk to end • Caliper Measurement: bi-wk to end • Report any adverse reactions or death immediately. • Any individual animal with a single observation of >30% body weight loss or three consecutive measurements of >25% body weight loss will be euthanized. • Any group with two measurements of mean body weight loss of >20% or >10% mortality will stop dosing. The group is not euthanized and recovery is allowed. […]
Exceptions to non-treatment body weight % recovery may be allowed on a case-by-case basis. • Endpoint TGD. Animals are to be monitored individually. […]
For the calculation of group mean tumor volumes the following rule was applied: when an animal exited the study due to tumor size, the final tumor volume recorded for the animal was included with the data used to calculate the mean volume at subsequent time points. […]

Trastuzumab was tested, and the “anti-tumor activity (mean tumour volume)” value was “did not show significant anti-tumor activity”.
